Read-outs that look alike come from different tables or passages of the source. One block for each molecule: values may come before it.
How the values were obtained:
LPAR1 receptor = LPAR1 receptor (Homo sapiens, UniProt Q92633); experiment: LPAR1 in vitro biological activity evaluation 2: HTRF cAMP kit (LANCE Ultra cAMP Kit) assay in CHO stable transfected cell line expressing the LPAR1 receptor; type: cell-based
[1] = target: hLPAR1 (human lysophosphatidic acid receptor 1, Accession No.: NM_001401.4) (Homo sapiens, UniProt Q92633); conditions: read-out: LPAR1 inhibitory activity IC50, Table 1, FLIPR method, CHO-K1 cells overexpressing hLPAR1
[2] = read-out: LPAR1 inhibitory activity IC50, Table 2, tested form: free acid, single separated cyclobutane
[3] = read-out: LPAR1 inhibitory activity IC50, Table 2, tested form: free acid
[4] = read-out: LPAR1 inhibitory activity IC50, Table 2, tested form: free acid, single separated trans isomer
[5] = tested form: free acid, single separated trans isomer

By UniProt entry, the sequences of proteins in these tests, tags left out.
UniProt Q92633, whole entry: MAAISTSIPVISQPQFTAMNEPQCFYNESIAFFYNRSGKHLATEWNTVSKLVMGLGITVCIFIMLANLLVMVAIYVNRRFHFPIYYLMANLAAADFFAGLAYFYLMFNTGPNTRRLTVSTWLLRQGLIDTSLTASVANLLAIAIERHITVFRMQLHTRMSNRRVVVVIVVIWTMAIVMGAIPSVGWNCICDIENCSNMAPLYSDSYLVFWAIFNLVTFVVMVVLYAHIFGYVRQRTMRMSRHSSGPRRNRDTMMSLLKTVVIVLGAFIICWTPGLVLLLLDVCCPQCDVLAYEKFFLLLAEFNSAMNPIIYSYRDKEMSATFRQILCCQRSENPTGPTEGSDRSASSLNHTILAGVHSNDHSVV

- IC50 (LPAR1 receptor; [2]): 0.0414 µM
SMILES: CCC(F)(F)[C@@H](C)OC(=O)Nc1c(-c2ccc(C#CC3(CC(=O)O)CC(OC)C3)c(C(F)(F)F)n2)nnn1C (single isomer, unassigned) [463-A]

- IC50 (LPAR1 receptor; [3]): 0.109 µM
SMILES: CCc1nc(-c2onc(C)c2NC(=O)O[C@H](C)C(F)(F)CC)ccc1C#CC1(CC(=O)O)CC1

SMILES: Cc1nc(-c2nnn(C)c2COC(=O)N(C)CC23CC(C2)C3)ccc1C#CC1(CC(=O)O)CC1
- IC50 ([1]; tested form: free acid): 0.0774 µM

- IC50 (LPAR1 receptor; [4]): 0.0671 µM
SMILES: Cc1nc(-c2onc(C)c2NC(=O)O[C@H](C)CC(C)(F)F)ccc1C#C[C@@H]1CC[C@H]1C(=O)O [compound 340]

- IC50 (LPAR1 receptor; [2]): 0.0353 µM
SMILES: CCc1nc(-c2nnn(C)c2NC(=O)O[C@H](C)C(F)(F)CC)ccc1C#CC1(CC(=O)O)CC(OC)C1 (single isomer, unassigned) [462-A]

- IC50 (LPAR1 receptor; [3]): 0.0454 µM
SMILES: CCc1nc(-c2noc(C)c2NC(=O)O[C@H](C)CC(C)(F)F)ccc1C#CC1(CC(=O)O)CC1

- IC50 (LPAR1 receptor; [3]): 0.06 µM
SMILES: Cc1noc(-c2ccc(C#CC3(CC(=O)O)CC3)c(Cl)n2)c1NC(=O)O[C@H](C)CC(C)(F)F

- IC50 (LPAR1 receptor; [2]): 0.0513 µM
SMILES: CCc1nc(-c2nnn(C)c2NC(=O)O[C@H](C)C(F)(F)CC)ccc1C#CC1(CC(=O)O)CC(OC)C1 (single isomer, unassigned) [462-B]

SMILES: Cc1nc(-c2nnn(C)c2NC(=O)O[C@H](C)C23CC(C2)C3)ccc1C#C[C@H]1CC(F)(F)C[C@@H]1C(=O)O
- IC50 ([1]; tested form: free acid): 0.0147 µM

- IC50 (LPAR1 receptor; [3]): 0.0606 µM
SMILES: Cc1noc(-c2ccc(C#CC3(CC(=O)O)CC3)c(C(F)(F)F)n2)c1NC(=O)O[C@H](C)CC(C)(F)F

- IC50 (LPAR1 receptor; [3]): 0.0463 µM
SMILES: Cc1onc(-c2ccc(C#CC3(CC(=O)O)CC3)c(C(F)(F)F)n2)c1NC(=O)O[C@H](C)CC(C)(F)F

SMILES: Cc1nc(-c2nnn(C)c2NC(=O)O[C@H](C)C23CC(C2)C3)ccc1C#C[C@@H]1CC(F)(F)C[C@H]1C(=O)O
- IC50 ([1]; tested form: free acid): 0.0082 µM

SMILES: CCC[C@@H](C)OC(=O)Nc1c(-c2ccc(C#C[C@H]3CC[C@@H]3C(=O)O)c(F)n2)nnn1C
- IC50 [1, 5]: 0.021 µM

SMILES: Cc1nc(-c2nnn(C)c2CNc2nccc(CCC(C)(F)F)n2)ccc1C#CC1(CC(=O)O)CC1
- IC50 [1]: 0.0713 µM

SMILES: Cc1noc(-c2ccc(C#CC3(OS(=O)(=O)O)CC3)c(F)c2)c1NC(=O)O[C@H](C)c1ccccc1Cl
- IC50 ([1]; tested form: free acid): 0.0001 µM

SMILES: CCC[C@@H](C)OC(=O)Nc1c(-c2ccc(C#C[C@@H]3CC[C@H]3C(=O)O)c(F)n2)nnn1C
- IC50 [1, 5]: 0.0375 µM

SMILES: CCC[C@@H](C)OC(=O)Nc1c(-c2ccc(C#C[C@@H]3CC[C@H]3C(=O)O)c(C)n2)nnn1C
- IC50 ([1]; tested form: free acid): 0.0345 µM

SMILES: Cc1noc(-c2ccc(C#CC3(N(C)S(=O)(=O)O)CC3)c(F)c2)c1NC(=O)O[C@H](C)c1ccccc1Cl
- IC50 ([1]; tested form: free acid): 0.0136 µM

- IC50 (LPAR1 receptor; read-out: LPAR1 inhibitory activity IC50, Table 2): 0.0733 µM
SMILES: CCC(F)(F)[C@@H](C)OC(=O)Nc1c(C)noc1-c1ccc(C#CC2(CC(=O)OC)CC(OC)C2)c(F)n1 (stereo partly shown)

- IC50 (LPAR1 receptor; [3]): 0.055 µM
SMILES: CCC[C@@H](C)OC(=O)Nc1c(-c2ccc(C#C[C@H]3CC(F)(F)C[C@@H]3C(=O)O)c(C)n2)nnn1C

SMILES: CCC[C@@H](C)OC(=O)Nc1c(-c2ccc(C#C[C@H]3CC[C@@H]3C(=O)O)c(C)n2)nnn1C
- IC50 ([1]; tested form: free acid): 0.0277 µM

SMILES: CCCCN(C)C(=O)OCc1c(-c2ccc(C#C[C@@H]3C[C@H]3C(=O)O)c(C)n2)nnn1C (relative stereo)
- IC50 ([1]; tested form: free acid, single separated trans enanti): 0.0963 µM

- IC50 (LPAR1 receptor; [4]): 0.0669 µM
SMILES: Cc1nc(-c2onc(C)c2NC(=O)O[C@H](C)CC(C)(F)F)ccc1C#C[C@H]1CC[C@@H]1C(=O)O

- IC50 (LPAR1 receptor; [3]): 0.0337 µM
SMILES: CCc1nc(-c2onc(C)c2NC(=O)O[C@H](C)CC(C)(F)F)ccc1C#CC1(CC(=O)O)CC1

SMILES: CCC(F)(F)C[C@@H](C)OC(=O)Nc1c(-c2ccc(C#C[C@@H]3CC[C@H]3C(=O)O)c(C)n2)nnn1C
- IC50 ([1]; tested form: free acid): 0.039 µM

- IC50 (LPAR1 receptor; [3]): 0.0462 µM
SMILES: CCc1nc(-c2noc(C)c2NC(=O)O[C@H](C)C(F)(F)CC)ccc1C#CC1(CC(=O)O)CC1

- IC50 (LPAR1 receptor; [2]): 0.0353 µM
SMILES: CCC(F)(F)[C@@H](C)OC(=O)Nc1c(-c2ccc(C#CC3(CC(=O)O)CC(OC)C3)c(C(F)(F)F)n2)nnn1C (single isomer, unassigned) [463-B]

- IC50 (LPAR1 receptor; [3]): 0.128 µM
SMILES: CCC[C@@H](C)OC(=O)Nc1c(-c2ccc(C#C[C@@H]3CC(F)(F)C[C@H]3C(=O)O)c(C)n2)nnn1C [compound 304]
